Assay results taken from article PMC7949113.

Chains of the proteins cited; added tags and fusions are not shown. Residues count along the entry.
UniProt P61073, whole entry: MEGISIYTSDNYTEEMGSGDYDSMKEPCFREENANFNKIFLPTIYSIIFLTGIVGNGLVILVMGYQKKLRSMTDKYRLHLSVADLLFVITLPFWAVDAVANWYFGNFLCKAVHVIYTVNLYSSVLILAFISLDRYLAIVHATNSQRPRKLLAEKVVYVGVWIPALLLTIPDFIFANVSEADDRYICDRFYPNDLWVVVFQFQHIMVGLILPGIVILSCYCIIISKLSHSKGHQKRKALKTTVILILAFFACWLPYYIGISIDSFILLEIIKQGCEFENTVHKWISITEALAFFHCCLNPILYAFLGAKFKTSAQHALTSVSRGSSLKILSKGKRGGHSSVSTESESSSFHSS
UniProt P48061, 22-89: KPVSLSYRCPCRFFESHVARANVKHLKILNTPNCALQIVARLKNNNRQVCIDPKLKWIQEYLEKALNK

Target: chemokine receptor CXCR4 (human (endogenous in DU145, PC3 and HEK293)) (UniProt P61073)

EC50 of ERK1/2 activation (phospho-ERK1/2 Western blot) by SDF1α, 5 min, DU145 cells: 3.5 nM
EC50 of ERK1/2 activation (phospho-ERK1/2 Western blot) by SDF1α, 5 min, HEK293 cells: 5.8 nM
EC50 of ERK1/2 activation (phospho-ERK1/2 Western blot) by SDF1α, 5 min, PC3 cells: 6.3 nM
Substance: stromal cell-derived factor 1α (from UniProt P48061-2 22-89) (ligand)
